The target in this test is PI3Kβ (Homo sapiens, UniProt P42338). The experiment in a line: Kinase profiler assay, PI3Kβ (positive control). Type of test: biochemical. On the procedure: The effects of LLL12 on twenty six purified human protein kinases were performed at the Millipore UK Limited (Dundee, UK) and Reaction Biology Corp. (Malvern, PA) using the Kinase profiler assay. Assays contained a peptide substrate, purified recombinant human protein kinases to be tested, and gamma-labeled ATP, magnesiumion. Radioactive phosphorylated product was measured and quantitated via a scintillation counter.

Amino acid sequences for entries named in this document (tags omitted). A change or cut given only in a name is not applied to a line headed by its entry.
UniProt P42338: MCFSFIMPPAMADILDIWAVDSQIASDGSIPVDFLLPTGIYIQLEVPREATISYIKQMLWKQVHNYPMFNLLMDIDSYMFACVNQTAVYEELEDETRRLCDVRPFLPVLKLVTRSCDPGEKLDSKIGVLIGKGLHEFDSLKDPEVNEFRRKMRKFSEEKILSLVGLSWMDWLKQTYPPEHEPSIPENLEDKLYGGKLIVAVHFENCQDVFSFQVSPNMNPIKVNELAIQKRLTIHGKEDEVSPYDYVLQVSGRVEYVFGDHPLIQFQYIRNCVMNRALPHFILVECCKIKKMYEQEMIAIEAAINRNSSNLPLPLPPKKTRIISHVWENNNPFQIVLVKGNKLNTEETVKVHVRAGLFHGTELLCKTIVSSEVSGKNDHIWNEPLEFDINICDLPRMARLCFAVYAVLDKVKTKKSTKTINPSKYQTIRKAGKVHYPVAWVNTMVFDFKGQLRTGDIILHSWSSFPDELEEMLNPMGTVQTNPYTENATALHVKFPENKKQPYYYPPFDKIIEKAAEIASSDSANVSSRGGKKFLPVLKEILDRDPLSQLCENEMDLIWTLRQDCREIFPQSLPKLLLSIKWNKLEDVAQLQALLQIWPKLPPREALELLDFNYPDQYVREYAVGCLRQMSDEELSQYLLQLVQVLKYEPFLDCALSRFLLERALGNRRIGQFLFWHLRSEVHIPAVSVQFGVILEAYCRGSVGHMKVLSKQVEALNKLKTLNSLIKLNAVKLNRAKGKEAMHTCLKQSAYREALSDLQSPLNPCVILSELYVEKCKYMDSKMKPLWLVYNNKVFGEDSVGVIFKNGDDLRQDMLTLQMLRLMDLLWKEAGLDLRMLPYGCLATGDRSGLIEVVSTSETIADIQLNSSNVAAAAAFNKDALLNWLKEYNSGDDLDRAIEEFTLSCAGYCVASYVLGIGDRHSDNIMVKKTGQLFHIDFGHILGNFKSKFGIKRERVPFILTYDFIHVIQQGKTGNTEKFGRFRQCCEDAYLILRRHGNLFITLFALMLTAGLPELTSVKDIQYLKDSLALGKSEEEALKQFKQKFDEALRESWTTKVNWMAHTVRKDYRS

The values below come from publication PMC3871589, “Evaluation of STAT3 Signaling in ALDH+ and ALDH+/CD44+/CD24− Subpopulations of Breast Cancer Cells” (PLoS ONE, 2013).

With `O=c1cc(N2CCOCC2)oc2c(-c3ccccc3)cccc12` [LY294002], half-maximal inhibition (IC50) was put at 0.243 µM. In other words, the sub-micromolar range.
